Measured values from US20070043509A1, “Albumin binding sites for evaluating drug interactions and methods of evaluating or designing drugs based on their albumin binding properties” (priority 2003, published 2007).

Chains of the proteins cited; added tags and fusions are not shown. Residues count along the entry.
UniProt P02768, 25-609: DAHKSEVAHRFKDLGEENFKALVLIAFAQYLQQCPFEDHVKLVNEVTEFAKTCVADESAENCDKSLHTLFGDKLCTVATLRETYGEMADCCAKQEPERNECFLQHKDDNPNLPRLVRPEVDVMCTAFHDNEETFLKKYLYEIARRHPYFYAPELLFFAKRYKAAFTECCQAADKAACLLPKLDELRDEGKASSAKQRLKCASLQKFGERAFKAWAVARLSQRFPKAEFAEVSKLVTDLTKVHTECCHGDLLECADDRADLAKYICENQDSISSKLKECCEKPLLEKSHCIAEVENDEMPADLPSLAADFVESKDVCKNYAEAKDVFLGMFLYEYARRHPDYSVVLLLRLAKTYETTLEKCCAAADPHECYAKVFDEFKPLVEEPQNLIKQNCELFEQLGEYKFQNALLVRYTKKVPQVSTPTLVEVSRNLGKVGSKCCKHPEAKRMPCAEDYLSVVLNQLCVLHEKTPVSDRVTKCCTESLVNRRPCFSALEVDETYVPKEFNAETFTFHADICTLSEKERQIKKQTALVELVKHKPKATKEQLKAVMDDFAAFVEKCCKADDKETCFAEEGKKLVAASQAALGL

Molecular target: human serum albumin (Homo sapiens, UniProt P02768)
Conditions: for Albumin Binding Location: Table I, Phase I, crystal structure of HSA-drug complex, crystal code printed in brackets after drug name; for Site of contacting residues in drug-albumin complex: Table II, Phase II, site heading of residue list, residues within 5 Å of bound ligand

Compound	Albumin Binding Location	Site of contacting residues in drug-albumin complex
CC(c1cc2ccccc2s1)N(O)C(N)=O (stereo not shown) [Zileuton]	IIA, IIIA, IIIB	
CCCCN1CCCCC1C(=O)Nc1c(C)cccc1C (stereo not shown) [Bupivacaine]	I-III	Site I-III Contacting residues:
CN(C/C=C/C#CC(C)(C)C)Cc1cccc2ccccc12 [Terbinafine]	IIIA	Site IIIA L387, I388, N391, C392, F395, F403, L407, L408, Y411, V415,
Cc1onc(-c2c(Cl)cccc2Cl)c1C(=O)N[C@@H]1C(=O)N2[C@@H]1SC(C)(C)[C@@H]2C(=O)O [Dicloxacillin]	IIIA	Site IIIA L387, I388, N391, C392, F395, F403, L407, R410, Y411, K414,
C=C1C[C@@H]2[C@H](CC[C@]3(C)C(=O)CC[C@@H]23)[C@@]2(C)C=CC(=O)C=C12 [Exemestane]	IIA	Site IIA
CC(C)[C@H]1CC[C@H](C(=O)N[C@H](Cc2ccccc2)C(=O)O)CC1 [Nateglinide]	IIA	Site IIA K199, W214, R218, L219, R222, F223, L238, V241, H242, R257,
COc1ccc2nc([S@@+]([O-])Cc3ncc(C)c(OC)c3C)[nH]c2c1 [Esomeprazole]	IIIA	Site IIIA L387, N391, L407, R410, Y411, K414, L430, L453, L457, R485,
CCc1nn(CCCN2CCN(c3cccc(Cl)c3)CC2)c(=O)n1CCOc1ccccc1 [Nefazodone]	IIIA	Site IIIA
CCCCNc1cc(C(=O)O)cc(S(N)(=O)=O)c1Oc1ccccc1 [Bumetanide]	IIA	Site IIA W214, R218, L219, R222, F223, L234, L238, V241, R257, L260,
CCCNC(=O)NS(=O)(=O)c1ccc(Cl)cc1 [Chlorpropamide]	IIIA	Site IIIA L387, N391, F403, L407, R410, Y411, K414, V415, V426, L430,
